The values that follow are results of earlier work, collected in publication PMC6641930 (ACS Omega, 2017).

Protein sequences, listed by entry. Tags and fused reporters are not part of them. Residues count along the entry.
UniProt P05067, 672-713: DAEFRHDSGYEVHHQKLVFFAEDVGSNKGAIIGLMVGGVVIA

Each structure is given as a SMILES string.

This series concerns the target Aβ1-42 fibrils (Homo sapiens, UniProt P05067). Conditions: read-out: Kd values for ThT toward Aβ fibrils; cited from earlier work.

As for `Cc1ccc2c(c1)sc(-c1ccc(N(C)C)cc1)[n+]2C` [ThT, thioflavin T], the Kd was 2 to 30 µM.

In general, Kd refers to the concentration at which binding is half-saturated.
